Reference: paper PMC12068008 (International Journal of Molecular Sciences, 2024)

Assay: physchem
Assay type: physicochemical
Settings: shake flask, n-octanol/water, 25 °C, 1 × 10^−4 M; read-out: logP, experimentally obtained
Method: To measure the lipophilicity (expressed as the partition coefficient) of the synthesized compounds and their constituents, using a “shake-flask” method, a two-phase system composed of n-octanol and deionized water was used. The stock solutions of the compounds were diluted with water to the concentration of 1 × 10^−4 M, and this solution was used for further investigation. […] The concentration of the compounds was calculated from their extinction coefficient at 260 nm that was previously determined.

Work on `O=c1c(O)c(-c2ccc(O)c(O)c2)oc2cc(O)cc(O)c12` [Quercetin, reference compound] yielded a logP at 30 min of 1.6.
